Literature values, collected in patent EP3505218B1, “A GENTLE DETERGENT COMPOSITION FOR GREASY AND ACNEIC SKINS” (Unifarco S.p.A., priority 2017, dated 2019).

Conditions: raw material description; cited from earlier work

For PCA ethyl cocoyl arginate, the in vitro cytotoxicity is given as “gentleness on the skin”.
